Assay results reported in patent publication US12264139B2, “Aryl sulfonamides as BLT1 antagonists” (Merck Sharp & Dohme LLC, priority 2015, dated 2025).

Protein sequences, listed by entry. Tags and fused reporters are not part of them. Lines headed by an entry give the natural chain unless they say otherwise; changes in a name come on top.
UniProt Q15722: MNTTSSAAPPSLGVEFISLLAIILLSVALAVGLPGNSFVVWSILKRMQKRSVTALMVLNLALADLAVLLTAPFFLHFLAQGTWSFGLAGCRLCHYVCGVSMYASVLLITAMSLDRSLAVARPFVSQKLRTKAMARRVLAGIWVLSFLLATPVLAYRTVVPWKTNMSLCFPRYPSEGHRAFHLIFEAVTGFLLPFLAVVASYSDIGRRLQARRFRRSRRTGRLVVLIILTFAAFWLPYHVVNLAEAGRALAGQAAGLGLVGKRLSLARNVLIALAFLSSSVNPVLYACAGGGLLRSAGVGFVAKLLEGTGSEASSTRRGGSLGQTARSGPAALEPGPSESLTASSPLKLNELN

Target: T1, human BLT1 receptor (Homo sapiens, UniProt Q15722)
T1 construct: expressed in transfected cells; host or cells: HEK293
Assay: BLT-1 cAMP Assay
Type: cell-based
Settings: HEK293 cells recombinantly expressing human BLT1, antagonist activity vs forskolin 4 μM and LTB4 2 nM, cAMP (CisBio kit)
Protocol: The ability of compounds to antagonize the human BLT1 receptor was determined using a kit to measure changes in intracellular cyclic AMP levels (cAMP dynamic assay kit, Cisbio Cat. No. 62AM4PEC). […] The cell suspension was centrifuged at 200×g for 10 min and then resuspended in fresh assay medium to a density of 2.5×10^5 cells/mL. […] All subsequent liquid additions were performed using a BIORAPTR (FRD; Beckman Coulter). Next, 5 μL of cell suspension was added and incubated for 20 min. at 37° C. and 5% CO2 in a humidified plastic tray.
The levels of cAMP were detected using the CisBio kit following the manufacturer's instructions: cAMP-d2 vial was reconstituted with distilled water and then diluted accordingly with conjugate & lysis buffer. 5 µL of cAMP-d2 working solution was added to all of the wells of the assay plate. cAMP-Cryptate vial was reconstituted with distilled water and then diluted accordingly with conjugate & lysis buffer. 5 µL of cAMP-Cryptate working solution were added to the assay plate. The assay plate was shaken for 3 minutes and incubated at room temperature for 45 minutes, then read on Perkin Elmer Envision. cAMP standard curve and fit data were plotted using a 4 parameter dose response curve fitting algorithm to fit curve. […] After normalization to treated and untreated controls, the percent effect of signal at each compound concentration was calculated. […]

| SMILES | EC50 (read-out: EC50 (nM) BLT-1 cAMP Assay) [nM] | EC50 (EC50 (nM) BLT-1 cAMP Assay) [nM] |
| --- | --- | --- |
| O=S(=O)(Nc1ccccc1-c1ccc2c(c1)OC[C@@H](Cc1ccnn1-c1ccccc1)[C@@H]2O)C(F)(F)F (racemic) [Example 48, 1,1,1-Trifluoro-N-(2-((rac-trans)-4-hydroxy-3-((1-phenyl-1H-pyrazol-5-yl)methyl)chroman-7-yl)phenyl)methanesulfonamide] | 870 |  |
| O=S(=O)(Nc1ccccc1-c1ccc2c(c1)OC[C@@H](Cc1ccnn1-c1ccccc1)[C@@H]2O)C(F)(F)F (relative stereo) [Example 49, (2-((3,4-trans)-4-hydroxy-3-((1-phenyl-1H-pyrazol-5-yl)methyl)chroman-7-yl)phenyl)((trifluoromethyl)sulfonyl)amide] |  | 275 |

Where two headings read alike, the source gives them in different places.
